Values quoted from earlier work as cited in PMC12039075 (Structure (London, England : 1993), 2022).

System: human μ-opioid receptor (MOR)

Compound: CN1CC[C@]23c4c5ccc(O)c4O[C@H]2[C@@H](O)C=C[C@H]3[C@H]1C5 [morphine]
- binding to MOR: ~ 2.5 nM
